Bioassay records as filed in PubChem BioAssay.
An excerpt weighted towards active compounds, which were near 16% of everything screened.
DT40 TDP1 CPT – growth inhibition of DT40 Tdp1-/-;hTDP1 cells with camptothecin (screen for TDP1 inhibitors) | actives 12% (n = 420,000) | AID 686979 | Potency, µM (highest dose often 46.2 µM), for the others: top-dose activity change, negative = growth inhibition, usual class: inhibitors | chicken DT40 Tdp1-/-;hTDP1 cells + 20 nM CPT, ATP luminescence, 48 h; further: potency means the concentration at half of the fitted maximal effect; on the % scale 0 is the no-effect control and ±100 the full control effect; nearly all actives have a fitted effect of over 55% in size
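Chicken DT40 Tdp1-/- cells stably complemented with human TDP1 were seeded at 400 cells/well in medium containing 20 nM camptothecin, exposed to pin-transferred compounds, and grown at 37 °C for at least 48 hr. Viability was read as ATP luminescence.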
miR-21 reporter – raises the signal of a miR-21 reporter | Potency, µM (doses to about 38.3 µM), for inactives: top-dose reporter change, positive = more light | HeLa miR-21 FLuc reporter, luciferase, 48 h | AID 2288 | 340,000 tested, under 10 active; active = well fitted rising curve with a large enough effect; inconclusive = small, poorly fitted or top-dose-only effect; inactive = no such curve, though single readings can be large or run the other way;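 also: % of control where 0% means no effect; miR-21 action dims this reporter so a rising signal means less miR-21 action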
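Using DMEM plus 10% FBS, HeLa miR-21-FLuc cells are incubated with test compounds (final up to about 40uM) for 48 hours; firefly luciferase signal is then imaged following reagent-mediated lysis.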
uPA surface inh – inhibitors of cell surface uPA generation; cell surface uPA generation assay, qHTS; Potency, µM (highest dose often 38.3 µM), without a hit: at the highest dose activity change, negative = inhibition, actives largely listed as inhibitors; actives 0.31% (n = 330,000); AID 540303; active means well fitted inhibition curve with a large enough effect; inconclusive means small, poorly fitted or top-dose-only effect; inactive means no such curve, though single readings can be large or run the other way; tested in mouse RAW 264.7 cells; further: potency means the concentration at half of the fitted maximal effect; on the % scale 0 is the no-effect control and ±100 the full control effect; nearly all actives have a fitted effect of over 55% in size
TDP1 block – blocks human tyrosyl-DNA phosphodiesterase 1; AID 485290; actives 0.28% (n = 350,000); recombinant TDP1, AlphaScreen DNA substrate cleavage; Q9NUW8; Potency, µM (top dose mostly 130 µM), for the others: top-dose activity change, negative = inhibition, most hits filed as inhibitors; further: potency means the concentration at half of the fitted maximal effect; on the % scale 0 is the no-effect control and ±100 the full control effect; nearly all actives have a fitted effect of over 40% in size
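Steps: enzyme plus compound, 15 min RT; add biotin/phosphotyrosine-FITC oligonucleotide (15 nM final), react 5 min; add donor/acceptor beads (10 ug/ml final), 10 min; read AlphaScreen. Tdp1 at 1 nM final.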
TDP1 cell noCPT – qHTS for Inhibitors of human tyrosyl-DNA phosphodiesterase 1 (TDP1): qHTS in cells in absence of CPT. DT40 Tdp1-/- hTDP1 cells, no CPT, ATP luminescence, 48 h. Potency, µM (highest dose often 46.2 µM), for inactives: top-dose activity change, negative = growth inhibition, usual class: inhibitors. actives 15% (n = 420,000). AID 686978, 2013; further: potency means the concentration at half of the fitted maximal effect; on the % scale 0 is the no-effect control and ±100 the full control effect; nearly all actives have a fitted effect of over 55% in size
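Chicken DT40 Tdp1-/- cells complemented with human TDP1, screened without camptothecin (DMSO vehicle only), 400 cells/well. Compounds pin-transferred, cells incubated at 37 °C for at least 48 hr. Growth read as ATP-dependent luminescence (CellTiter-Glo, 30 min at RT).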
* marks the source's active call; other numbers are inactive results; u = inconclusive; x = no result. Unless noted, the call rests on the fitted dose curve; in most records, active means well fitted curve in the direction sought with a large enough effect; inconclusive means small, poorly fitted or top-dose-only effect, or another doubt; inactive means no such curve, though single readings can be large; an effect the other way counts as inactive or inconclusive.

SMILES	DT40 TDP1 CPT	miR-21 reporter	uPA surface inh	TDP1 block	TDP1 cell noCPT
CCOc1ccc(C(=O)N2CCC(c3ccncc3)CC2)cc1	13µM*	16%	x	3%	u
CCOc1ccc(C(=O)C2CCN(C(=O)c3ccccc3C(=O)O)CC2)cc1	-7%	1%	x	10%	-6%
COc1ccc(CCNC(=O)c2ccc(Cn3c(=O)c4ccccc4n(Cc4cc(C)ccc4C)c3=O)cc2)cc1OC	-17%	-3%	x	5%	u
CCN(CC)c1cc(CS(=O)c2ccccc2)nc(-c2ccccc2)n1 (centres undefined)	21µM*	x	-2%	x	u
Cc1cccc(CCNC(=O)C2CCC(CNS(=O)(=O)c3c(C)cc(C)cc3C)CC2)c1 (centres undefined)	u	24%	x	-3%	16µM*
Cc1cccc(CCNC(=O)C2CCC(CNS(=O)(=O)c3cccs3)CC2)c1 (centres undefined)	u	3%	2%	-5%	u
O=C(NCCc1ccccc1)C1CCC(CNS(=O)(=O)c2ccccc2)CC1 (centres undefined)	-29%	3%	0%	-2%	15%
Cc1cc(C)c(S(=O)(=O)NCC2CCC(C(=O)NCCc3ccccc3)CC2)c(C)c1 (centres undefined)	15µM*	1%	x	-1%	15µM*
CC1(C)CC(=O)C/C(=N/NC(=O)C2CCN(S(=O)(=O)c3cccs3)CC2)C1	-11%	0%	-4%	4%	25%
CC(C)(CO)NC(=O)c1ccc2c(c1)C(=O)c1ccccc1-2	-19%	-69%	-3%	x	18µM*
CCOc1ccc(C2C(C(=O)c3cccs3)=C(O)C(=O)N2CCN2CCOCC2)cc1 (centres undefined)	7%	-7%	-7%	x	-15%
Cc1ccc(N2C(N)=C(C#N)C(c3cccnc3)C3=C2CC(C)(C)CC3=O)cc1 (centres undefined)	u	3%	-8%	5%	u

Single records, as listed above. Order of screens: DT40 TDP1 CPT	miR-21 reporter	uPA surface inh	TDP1 block	TDP1 cell noCPT
Entry for CCN(CC)c1cc(CS(=O)c2ccccc2)nc(-c2ccccc2)n1 (centres undefined) = 21µM*	x	-2%	x	u
Entry for CCOc1ccc(C(=O)N2CCC(c3ccncc3)CC2)cc1 = 13µM*	16%	x	3%	u
Entry for COc1ccc(CCNC(=O)c2ccc(Cn3c(=O)c4ccccc4n(Cc4cc(C)ccc4C)c3=O)cc2)cc1OC = -17%	-3%	x	5%	u
Entry for CC(C)(CO)NC(=O)c1ccc2c(c1)C(=O)c1ccccc1-2 = -19%	-69%	-3%	x	18µM*

Shown with two lines to a compound: two of the compounds above.
Fields – DT40 TDP1 CPT	miR-21 reporter	uPA surface inh	TDP1 block	TDP1 cell noCPT
Cc1cc(C)c(S(=O)(=O)NCC2CCC(C(=O)NCCc3ccccc3)CC2)c(C)c1 (centres undefined)
→ 15µM*	1%	x	-1%	15µM*
CC1(C)CC(=O)C/C(=N/NC(=O)C2CCN(S(=O)(=O)c3cccs3)CC2)C1
→ -11%	0%	-4%	4%	25%

Other results
SMILES	DT40 TDP1 CPT	miR-21 reporter	uPA surface inh	TDP1 block	TDP1 cell noCPT
Cc1ccc(N2C(N)=C(C#N)C3(C(=O)N(C)c4ccccc43)C3=C2CC(C)(C)CC3=O)cc1Cl (centres undefined)	u	13%	-1%	1%	16µM*
CC1(C)CC(=O)C2=C(C1)OC(N)=C(C#N)C21C(=O)N(CN2CCOCC2)c2ccccc21 (centres undefined)	-23%	-4%	3%	1%	-7%
CN1C(=O)C2(C(C#N)=C(N)N(c3cc(Cl)cc(Cl)c3)C3=C2C(=O)CC(C)(C)C3)c2ccccc21 (centres undefined)	21µM*	26%	3%	1%	u
COc1ccc(-n2nc(C(=O)NCC(=O)NCc3ccco3)c3ccccc3c2=O)cc1Cl	-7%	1%	x	7%	-12%
COc1cc(/C=N/S(=O)(=O)c2ccccc2)cc(OC)c1O	4%	-1%	-7%	3%	5%
CC(C)(C)OC(=O)CC(=O)NNC(=O)c1cc2ccccc2[nH]1	x	x	x	-1%	x
Cc1cccc(NC(=O)CN(CC2CCCO2)C(=O)c2oc3ccc(F)cc3c2C)c1C (centres undefined)	u	x	0%	1%	u
CCN(CC)c1ccc(C=C(c2nnnn2-c2ccccc2)c2nnnn2-c2ccccc2)cc1	u	-11%	6%	5%	10µM*
Oc1c(CN2CCN(c3ccccn3)CC2)cc(Cl)c2cccnc12	4.6µM*	22%	5%	11%	3.7µM*
CN(C)C1CCN(Cc2cc(COCc3ccccc3)c3cccnc3c2O)C1 (centres undefined)	x	x	u	2%	x
COCc1cc(CN2CCCC2)c(O)c2ncccc12	0.65µM*	26%	u	10%	0.82µM*
Oc1c(CN2CCCCC2)ccc2cccnc12	1.6µM*	x	-13%	x	1µM*
Oc1c(CN2CCCCC2)cc(COCc2ccccc2)c2cccnc12	4.1µM*	u	-12%	-3%	4.6µM*
COc1ccc(-c2noc(CN(C(=O)Cc3ccc(C)cc3)C(C)C)n2)cc1	u	11%	x	2%	u
O=C(c1cccc(C(F)(F)F)c1)N1CCC(O)(CS(=O)(=O)Cc2ccccc2Cl)CC1	u	2%	x	-4%	-20%
CN(C(=O)c1ccc(F)c(S(=O)(=O)N2CCOCC2)c1)C1CCCCC1	3%	x	3%	0%	-8%
C=CCN1C(=O)CSC1=Nc1ccc(O)cc1	u	-4%	x	2%	16µM*
Cc1ccc(N(C)S(=O)(=O)c2ccc3c(c2)CC(C)N3C(=O)C2CC2)cc1 (centres undefined)	u	-1%	7%	-6%	u
CCN(c1ccc(OC)cc1)S(=O)(=O)c1ccc2c(c1)CC(C)N2C(=O)C1CC1 (centres undefined)	21µM*	-3%	-5%	1%	18µM*
CC1Cc2cc(S(=O)(=O)N(C)c3ccc(Br)cc3)ccc2N1C(=O)C1CC1 (centres undefined)	23µM*	u	x	3%	23µM*
COc1ccccc1S(=O)(=O)Cc1ccc(C(=O)NC2CCCCCC2)o1	u	-1%	0%	3%	-22%
COc1cc(/C=C/c2ccc3cccc(OC)c3n2)c(OC(C)=O)c([N+](=O)[O-])c1	12µM*	17%	x	4%	15µM*
COc1c(OC(C)=O)ccc(/C=C/c2ccc3cccc(OCc4ccccc4)c3n2)c1[N+](=O)[O-]	15µM*	-2%	-7%	8%	15µM*
CCOc1ccc(C(=O)NCCc2sc3nc(-c4ccc(Cl)cc4)nn3c2C)cc1OCC	u	-12%	x	-3%	u
CC(C)COc1ccc(C(=O)Nc2scc(-c3ccc(Cl)cc3Cl)c2C(N)=O)cc1	16µM*	-6%	4%	-6%	9.2µM*
CC(C)COc1ccc(C(=O)Nc2cc3nn(-c4ccccc4)nc3cc2Cl)cc1	1%	-7%	x	7%	-1%
O=C(NCc1nnc(SCC(=O)N2CCC(Cc3ccccc3)CC2)o1)c1ccccc1F	u	5%	-12%	0%	16µM*
CCOC(=O)c1cnc2c(C)cccc2c1NCc1ccco1	-25%	-10%	-12%	1%	-19%
CCOC(=O)c1ccc2ncc(C(=O)OCC)c(NCc3ccco3)c2c1	15µM*	-12%	-11%	0%	23µM*
CCOC(=O)c1cnc2ccc(C(=O)OC)cc2c1Nc1ccccc1CC	16µM*	23%	x	x	12µM*
NC(=O)C1CC(O)CN1c1nc(CN2CCOCC2)nc2scc(-c3ccccc3)c12 (centres undefined)	1%	-3%	4%	4%	-2%
